Source: ChEMBL document CHEMBL1150411, “4-(Phenylaminomethylene)isoquinoline-1,3(2H,4H)-diones as potent and selective inhibitors of the cyclin-dependent kinase 4 (CDK4)” (J Med Chem, 2008)

Legend:
Sf9 [1] = assay: Selectivity for CDK4/cyclin D1 expressed in Sf9 cells-baculovirus system over CDK1/Cyclin B1 expressed in Sf9 cells-baculovirus system
Sf9 [2] = assay: Selectivity for CDK4/cyclin D1 expressed in Sf9 cells-baculovirus system over CDK2/cyclin E expressed in Sf9 cells-baculovirus system

Which results are given for O=C1NC(=O)c2ccc(-n3cccc3)cc2/C1=C/Nc1ccc(CN2CCCCC2)cc1?
Selectivity ratio (Sf9 [1]): > 357; Selectivity ratio (Sf9 [2]): > 357

Which results are given for CN1CCN(c2ccc(N/C=C3\C(=O)NC(=O)c4ccc(-c5ccsc5)cc43)cc2)CC1?
Selectivity ratio (Sf9 [1]): 500; Selectivity ratio (Sf9 [2]): 500
